From PMC3510444 (Molecular Cell, 2012)

Biological target: LC3C, purified, for fluorescence anisotropy (human, UniProt Q9BXW4 1-126)
Assay: fluorescence polarisation; fluorescence anisotropy, equilibrium; purified ATG8 orthologs serially diluted and mixed with equal volumes of 100 nM FITC-labeled NDP52 peptides; PheraStar plate reader
Conditions: both partners purified

B1: FITC-labeled NDP52 CLIR peptide (aa 128-141), wild type (peptide, UniProt Q13137 128-141, looked up)
peptide: ENEEDILVVTTQGE
modifications: FITC label (end not stated)
notes: NDP52, human, CLIR region, 14-mer; also called CLIR^WT
In the case of B1, the Kd is reported as 1600 nM.
